In PubChem BioAssay AID1274 (Emory University Molecular Libraries Screening Center, 2008) one finds inhibition data, which are given here for 29 compounds.

Amino acid sequences for entries named in this document (tags omitted).
UniProt P14598, whole entry: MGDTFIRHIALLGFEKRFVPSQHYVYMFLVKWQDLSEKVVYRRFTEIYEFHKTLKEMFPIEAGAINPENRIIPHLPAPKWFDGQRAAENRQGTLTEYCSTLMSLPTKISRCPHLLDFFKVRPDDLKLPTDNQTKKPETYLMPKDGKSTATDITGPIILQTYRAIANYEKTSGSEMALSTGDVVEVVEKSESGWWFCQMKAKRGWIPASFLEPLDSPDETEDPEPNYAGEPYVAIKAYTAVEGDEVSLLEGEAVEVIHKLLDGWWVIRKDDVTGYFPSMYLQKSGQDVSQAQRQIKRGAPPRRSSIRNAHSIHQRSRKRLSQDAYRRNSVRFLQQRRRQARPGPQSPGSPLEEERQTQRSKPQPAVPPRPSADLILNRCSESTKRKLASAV

The list shows a part of the results, in another mix than the full data. The source made the active and inactive calls.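 How the source made its calls: active means inhibition above about 30% (limit read from the data); inactive means the rest.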

Usually inhibition stands for the relative decrease from the control value, in per cent.

The test deals with Neutrophil cytosol factor 1 (Homo sapiens) (UniProt P14598). Put plainly: p47phox/p22phox peptide binding inhibitors, primary screen, biochemical, uHTS, NADPH oxidase regulatory subunit (AID 1274).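 Further: 0% = p47phox with labelled peptide and 100% = labelled peptide alone.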 The conditions noted are these: fluorescence polarization, 2 h, at 24.7 µM, hits give high values.
With `N#Cc1ccc(C(=O)NCC2(N3CCCCC3)CCCCC2)cc1`, the inhibition was inactive: -9.14%.

`c1ccc(CN2CCC(Nc3ccccc3)CC2)cc1`: the inhibition was inactive: -8.67%.

As to `COc1ccc(C(=O)NCC2(N3CCOCC3)CCCCC2)cc1OC`, the inhibition is inactive: -0.76%.

Turning to `N/C(=N\O)c1c(N)no[n+]1[O-]`, the inhibition is inactive: -4.61%.

In the case of `O=C(OC1CN2CCC1CC2)C1c2ccccc2C=Cc2ccccc21` (centres undefined), the inhibition is inactive: -1.47%.

In the case of `CCOc1ncccc1C(=O)NCC1(N2CCOCC2)CCCCC1`, the inhibition was inactive: -4.84%.

`CC(C)(C)OC(=O)N1CCC(Nc2ccccc2)CC1`: the inhibition is inactive: -14.9%.

In the case of `COc1cc(OC)cc(C(=O)NCC2(N3CCOCC3)CCCCC2)c1`, the inhibition was inactive: 2.54%.

Turning to `CCC(CO)(C(=O)OC1CN2CCC1CC2)c1ccccc1` (centres undefined), the inhibition was inactive: -10.4%.

Regarding `CCCOc1ccc(C)cc1CN(CCCl)CCCl`, the inhibition was inactive: -9.68%.

On to `Fc1ccccc1NC1CCN(Cc2ccccc2)CC1`, for which the inhibition was inactive: 4.4%.

Turning to `CCN1CCC(Nc2cccc(F)c2)CC1`, the inhibition is inactive: -2.94%.

As to `CN(C)c1ccc(C(=O)NCC2(N3CCCCC3)CCCCC2)cc1`, the inhibition was inactive: -18.6%.

Take `CCOc1ccc(C)cc1CN(CCCl)CCCl`: the inhibition is inactive: -2.22%.

Consider `COc1ccc(NC2CCN(CCc3ccccc3)CC2)c(OC)c1`, for which the inhibition was inactive: -7.36%.

Take `Cc1ccc(OCC(C)C)c(CN(CCCl)CCCl)c1`: the inhibition is inactive: -3.4%.

In the case of `COc1ccc(C(=O)NCC2(N3CCCCC3)CCCCC2)c(OC)c1OC`, the inhibition was inactive: -3.91%.

As to `O=C(NCC1(N2CCOCC2)CCCCC1)c1cc2ccccc2o1`, the inhibition was inactive: -5.54%.

In the case of `O=C(OC1CN2CCC1CC2)C1c2ccccc2Oc2ccccc21` (centres undefined), the inhibition is inactive: -3.88%.

As to `N#CC1(Nc2ccccc2)CCN(Cc2ccccc2)CC1`, the inhibition is inactive: 7.01%.

As for `CCOC(=O)N1CCC(Nc2ccc(OC)cc2)CC1`, the inhibition is inactive: -8.35%.

As for `CC(C)c1ccc(NC2CCN(C(=O)OC(C)(C)C)CC2)cc1`, the inhibition is inactive: 6.8%.

For `CN(C)c1cccc(C(=O)NCC2(N3CCCCC3)CCCCC2)c1`, the inhibition was inactive: 0.95%.

For `COc1ccc(CN(CCCl)CCCl)cc1Cl`, the inhibition was inactive: -0.96%.

Consider `N#CC1(Nc2ccccc2)CCN(CCc2ccccc2)CC1`, for which the inhibition is inactive: -11.4%.

Consider `O=C(NCC1(N2CCCCC2)CCCCC1)c1cccc([N+](=O)[O-])c1`, for which the inhibition was inactive: -10.3%.

For the compound `O=C(NCC1(N2CCOCC2)CCCCC1)c1cc(=O)[nH]c2ccccc12`, the inhibition is inactive: 2.89%.

On to `CN1CCN(CCOC(=O)C(O)(c2ccccc2)c2ccccc2)CC1`, for which the inhibition was inactive: 3.35%.

`COc1ccc(NC2CCN(C(=O)OC(C)(C)C)CC2)cc1`: the inhibition is inactive: -6.35%.
